# Test results taken from patent US20060247156A1, “Use of neuropeptides for ligament, cartilage, and bone healing” (priority 2004, published 2006).
# Several values for one entry are separate records, joined by “and”; a condition that tells them apart may be missing. Equal entries are not always repeated. Entries after “also recorded” stand apart in the source; their conditions may differ.
# Columns and labels:
# [1] = tested on: MCL neuropeptide concentration (SP, CGRP, NPY, VIP); assay: Neuropeptides in MCL after capsaicin (RIA, immunofluorescence); assay type: in vivo, rat
# Method: Into Groups 1 (n=6 animals) and Group 3 (n=9 animals), capsaicin (50 mg/kg/day; prepared by emulsification in 10% Tween 80 and 10% ethanol in sterile 0.9% saline) was injected subcutaneously on a daily basis for three consecutive days. Injections were made into a site between the scapulae. Since administration of capsaicin causes neuropeptide release and pain, the all injections were given under general anesthesia with maintenance of general anesthesia for thirty minutes after injection. Bupivicaine was also administered subcutaneously at the site of the capsaicin injection. Furthermore, to counteract any respiratory complications that could arise due to the administration of capsaicin, every animal also received an intraperitoneal injection of atropine (0.2 mg/kg), and terbutaline (0.2 mg/kg) fifteen minutes prior to capsaicin injection. Into Group 2 (n=6 animals) and Group 4 (n=9 animals), a similar volume of sterile saline was injected via the same method. All other medications were given as in the treated groups. There were no signs of infection, discomfort, or unusual behavior in the treated rats. On the third day of capsaicin or control treatment, rats in Groups 3 and 4 underwent complete rupture of one MCL. Contralateral legs were used as sham controls. […]
# Neuropeptide Radioimmunoassay: Four MCLs from all groups were used for quantification of neuropeptide concentrations via RIA. […]
# [2] = tested on: ruptured MCL of a FNT rat; assay: Local neuropeptide delivery to ruptured MCL of femoral nerve transected (FNT) rats: mechanical testing, histomorphology; assay type: in vivo
# From the text: Surgical Procedure: Thirteen female Wistar rats (278 g to 315 g) were divided into two groups: femoral nerve transection (FNT) or sham control. All rats were anesthetized with isofluorane (isofluorane 0.5-3%). […] Skin covering the anterior inguinal region was shaved and prepared for surgery. A skin incision approximately 15 mm long was made and the fascia distal to the inguinal was incised. The femoral artery, vein, and nerve were exposed and the femoral nerve was isolated and transected (with removal of a 5 mm segment of the nerve) using 3-0 dexon suture. The fascia and skin were closed in two layers with 3-0 continuous dexon suture. Immediately following FNT, rats from each group (n=4 FNT; n=3 controls) underwent a complete surgical rupture of the MCL to one knee. The contra-lateral knee underwent sham surgery. Two weeks post-knee surgery, rats were sacrificed using an overdose of pentobarbitone (150 mg/kg).
# Local delivery of NPs and NP inhibitors is important to identify the specific roles of individual NPs on healing tissues. An animal model for the local delivery of NPs has been developed and is presented in this Example. Briefly, NP infused mini-osmotic pumps were implanted subcutaneously into the back of rats. A small catheter running from the pump to an intramuscular space above the MCL was secured to the rat. […]
# [3] = tested on: healing MCL; assay: Local neuropeptide delivery to normally innervated healing MCL: mechanical testing, histomorphology; assay type: in vivo, rat
# Method: Animal Model and Surgery: Forty female Wistar rats (200-250 g) were divided into five groups. To each group, one of the following neuropeptide solutions was delivered to the intramuscular space above a healing MCL: SP (75 pg/100 μl); CGRP (10 pg/100 μl); NPY (65 pg/100 μl); VIP (100 pg/100 μl); and a combination of NPY and VIP (NPY 65 pg/100 μl; VIP 100 pg/100 μl).
# All rats underwent bilateral MCL rupture. Neuropeptides were then delivered ruptured MCLs unilaterally. Neuropeptide infused mini-osmotic pumps (Alzet Corp.) were implanted subcutaneously into the back of each rat. A small catheter running from the pump was run to an intramuscular space above the MCL and was secured. Within minutes of surgical intervention, all rats recovered and had normal movement and behavior (grooming, feeding, etc.).
# Mechanical Testing: Mechanical testing was performed as described in Chapter 2. Briefly, animal hind limbs from all groups (n=5 for all groups) were disarticulated at the hip joint and stored at −80° C. until testing. On the day of testing, MCLs including intact femoral and tibial bone sections were excised for ex vivo testing. Ligament thickness and width was measured optically, and MCL area was estimated with elliptical geometry. For strain measurements, optical markers were placed onto the ligament tissue near the insertion sites. A small preload of 0.1N was applied to the ligaments in order to obtain a uniform starting point. The ligaments were then preconditioned to 1% strain for 10 cycles. After preconditioning, ligaments were pulled to failure at a rate of 10% per second.
# Tissue displacement was obtained using video dimensional analysis using equations (1) and (2) supra. The mechanical properties that were examined in this study were maximum force, ultimate stress, strain at failure, elastic modulus, and area. Statistical analysis was performed using paired ttests to compare each treated MCL to its contralateral control (alpha=0.05).
# Ligaments were immediately fixed in formalin fixative for three days at room temperature. Specimens were embedded in paraffin, sectioned (6 μm), mounted on slides, and stained with hematoxylin and eosin (H&E).
# [4] = tested on: bovine articular chondrocytes; assay: Bovine chondrocytes proliferation assay (CellTiter 96 AQueous One); assay type: cell-based; conditions: CGRP 100 pg/ml, NPY 50 ng/ml, SP 500 pg/ml, VIP 1 ng/ml
# Method: (§1) Cartilage chunks were then digested at 37° C. in DMEM containing 0.05% hyaluronidase for 30 minutes, followed by 0.05% collagenase digestion overnight. The digests were filtered through 40-micron nylon mesh and centrifuged at 600×g for 20 minutes. The cell pellets were then resuspended in DMEM and counted using a hemacytometer.
# (§2) Cells were plated at 1×10^5 cells/well in 12-well plates (n=9) for proteoglycan assays and at 2×10^4 cells/well in 96-well plates (n=16) for proliferation assays. The culture volumes were 1 ml/well in 12-well plates and 100 μl/well in 96-well plates.
# The plates were incubated at 37° C. in a humidified CO2 incubator for 3 days to allow the cells to recover from the harvesting procedure.
# The media were then changed to serum-free (i.e., 0.1% BSA) DMEM containing neuropeptides at the following concentrations: (a) control; (b) CGRP (100 pg/ml); (c) NPY 50 ng/ml; (d) SP (500 pg/ml); and (e) VIP (1 ng/ml).
# (§3) On Day 3 of treatment, 20 μl of CellTiter 96® AQueous One Solution Cell Proliferation Assay (Promega Corporation, Madison, Wis.) was added to each well of the 96-well cultures for 60 minutes, and cells in the 12-well plates were digested with 0.125 units of papain/well overnight. After the 60-minute incubation, the absorbance of the color generated by the cells in the 96-well plates was measured at wavelength 490 nm. […]
# [5] = tested on: bovine articular chondrocytes; assay: Bovine chondrocytes glycosaminoglycan assay (DMMB); assay type: cell-based; conditions: CGRP 100 pg/ml; Day 3 of treatment; individual wells
# Method: as §1, §2
# The plates were incubated at 37° C. in a humidified CO2 incubator for 3 days to allow the cells to recover from the harvesting procedure. […]
# as §3
# Following papain digestion of the cultures in 12-well plates, the amount of glycosaminoglycan (representative of proteoglycans) in each well was measured using the dimethylmethylene blue (DMMB) dye-binding assay. The results were statistically analyzed and plotted. […]
# [6] = tested on: Bovine nucleus pulposus cells; assay: Bovine nucleus pulposus (intervertebral disc) cell proliferation; assay type: cell-based; conditions: CGRP 10 ng/ml, NPY (mcg/ml, SP 5 mcg/ml); day 1, day 2, day 3
# Method: Bovine calf spines and femoral condyles were obtained from a slaughterhouse and freshly transported to the laboratory. Nucleus pulposus tissue was carefully dissected, avoiding annular and endplate cartilage tissues, from each disc. Articular cartilage from femoral condyles was dissected in the same manner. […] Cells were harvested by overnight digestion with hyaluronidase and collagenase, followed by filtration. Cells were plated at a density of 1×10^5 cells/ml and incubated at 37° C. in 5% CO2 and 95% air in the presence of each neuropeptide or media only (control). At various time points in growth, cells were collected for proliferation and glycosaminoglycan (GAG) production assays. Varying concentrations of NPs were examined.
# Well established colorimetric and luminescent assays (CellTiter 96® AQueous Non-radioactive Cell Proliferation and CellTiter-Glo® Luminescent Cell Viability Assays, Promega, Madison, Wis.) were used to quantify the effect of each NP on cell proliferation. In addition, corresponding cell cultures during growth were digested with papain to release glycosaminoglycans (GAGs). Dimethyl methylene blue (DMMB) colorimetric assays were used to quantify the amount of GAGs in each culture.
# Multiple samples for test and control groups were performed simultaneously. […]
# [7] = Example 7, two weeks of healing
# [8] = Example 7: normally innervated rats, bilateral MCL rupture, mini-osmotic pump (SP 75, CGRP 10, NPY 65, VIP 100 pg/100 μl), two weeks of healing
Compound,"concentrations of NPY or VIP in intact MCLs ([1]; Group 1: intact MCL, capsaicin treated)",immunofluorescent labeling of neuropeptides in ligaments ([1]; Group 1 and Group 3 ligaments after capsaicin treatment),"histomorphology (H&E) of healing MCL ([2]; SP 75 pg/100 μl or CGRP 10 pg/100, two weeks)","mechanical strength of healing MCL (in words) ([2]; local delivery of SP or CGRP, two weeks of healing)","histomorphology (H&E) of healing MCL [3, 7]","mechanical strength / healing of MCL (in words) [3, 7]","failure force [3, 8] [N]","ultimate stress [3, 8] [MPa]",proliferation of articular chondrocytes compared to controls (in words) [4],Glycosaminoglycan Assay [5],disc cell proliferation compared to controls [6]
COc1cc(CNC(=O)CCCC/C=C/C(C)C)ccc1O [capsaicin],No changes,disappearance of SP and CGRP,,,,,,,,,
calcitonin gene-related peptide [CGRP],,,remained disorganized,No mechanical changes,highly disorganized,weakening in mechanical strength; also recorded: three failed to fully heal,4.0±5.8,1.8±2.5,stimulate proliferation,7.147 μg/dish and 8.873 μg/dish and 7.601 μg/dish and 6.783 μg/dish and 6.965 μg/dish and 5.512 μg/dish and 7.51 μg/dish and 9.691 μg/dish (2×),stimulate disc cell proliferation
